Usually EC50 stands for the concentration needed to bring the measured effect to its halfway point. A low value points to higher potency in that assay.

A short description of the test: Compound was evaluated for effective concentration […] for Dopamine receptor D2 mitogenesis. (95% confidence intervals).

As for `Oc1ccc2[nH]cc(CCCCN3CC=C(c4ccccc4)CC3)c2c1`, it took 370 pM to reach a half-maximal effect (EC50).

Values taken from BindingDB's records for doi:10.1021/jm950721m (Warner-Lambert, 1996).
